In this experiment the target is T1, Glucose-induced degradation protein 4 homolog (Homo sapiens) (UniProt Q8IVV7).
T1 sequence (whole entry): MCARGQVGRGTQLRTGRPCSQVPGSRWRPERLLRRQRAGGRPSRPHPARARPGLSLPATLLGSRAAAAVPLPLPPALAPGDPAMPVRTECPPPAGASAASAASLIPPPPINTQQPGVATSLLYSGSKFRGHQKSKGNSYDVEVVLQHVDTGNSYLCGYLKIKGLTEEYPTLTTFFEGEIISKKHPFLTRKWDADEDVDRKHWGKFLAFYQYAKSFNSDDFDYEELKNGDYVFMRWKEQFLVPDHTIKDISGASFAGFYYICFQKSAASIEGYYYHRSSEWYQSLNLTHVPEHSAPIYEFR
As a reminder, the ΔTm is the shift of the melting midpoint relative to a reference. Consider `COc1cccc(C2CCCc3ccccc32)c1` (stereo not drawn), for which the ΔTm stood at 7.8 °C.

In the case of `CC1CN=C(Nc2cccc(O)c2)S1` (racemic), the ΔTm turned out to be 5.3 °C. As for `CC(C)(C)OC(=O)N1CC2CC1CN2` (stereo not drawn), the ΔTm stood at 6.7 °C.

For the compound `CCCCNCC(=O)N[C@H](Cc1ccc(C(C)(C)C)cc1)C(=O)N[C@@H](Cc1cccc(OC)c1)C(=O)NC`, the ΔTm was 8.7 °C. The value for `CC1CN=C(Nc2ccc(O)cc2)S1` (stereo not drawn) was 3 °C; that for `CNC(=O)[C@H](Cc1ccc(C)cc1)NC(=O)[C@@H](C/C=C/c1ccccc1)NC(=O)CNCc1ccccc1` was 8.8 °C. With `Nc1cccc(C2NCCc3sccc32)c1` (stereo not drawn), the ΔTm stood at 6.6 °C. The same measure for `Fc1ccccc1C1NCCc2sccc21` (stereo not drawn): 5.8 °C. The value for `CC1CN=C(Nc2ccccc2F)S1` (stereo not drawn) was 1.6 °C; that for `c1ccc(C2NCCc3[nH]ccc32)cc1` (stereo not drawn) was 9.2 °C. The same measure for `Clc1cccc(C2NCCc3sccc32)c1` (stereo not drawn): 7.3 °C; for `COc1ccc(C2NCCc3ccccc32)cc1` (stereo not drawn): 6.7 °C; for `Nc1ccc(NC2=NCCS2)cc1`: 1.8 °C. As to `c1ccc(C2NCCc3occc32)cc1` (stereo not drawn), the ΔTm was found to be 8.7 °C.

For `CC1CN=C(Nc2cccc(F)c2)S1` (stereo not drawn), the ΔTm was 6 °C.

`Cc1ccc(C2NCCc3sccc32)cc1` (stereo not drawn): the ΔTm worked out at 5.9 °C. As for `Clc1ccc(NC2=NCCCS2)cc1`, the ΔTm turned out to be 0.1 °C.

For `Brc1cccc2c1CCNC2c1ccccc1` (stereo not drawn), the ΔTm stood at 7 °C.

The values above are taken from ChEMBL document CHEMBL5104179, “Discovery and Structural Characterization of Small Molecule Binders of the Human CTLH E3 Ligase Subunit GID4” (J Med Chem, 2022).
